Reference: US8993568B2, “Morpholinyl derivatives useful as MOGAT-2 inhibitors” (Eli Lilly and Company, priority 2012, dated 2015)

By UniProt entry, the sequences of proteins in these tests, tags left out. Where a name states a change or a piece, a line headed by the entry shows the natural chain unless it says otherwise.
UniProt Q3SYC2: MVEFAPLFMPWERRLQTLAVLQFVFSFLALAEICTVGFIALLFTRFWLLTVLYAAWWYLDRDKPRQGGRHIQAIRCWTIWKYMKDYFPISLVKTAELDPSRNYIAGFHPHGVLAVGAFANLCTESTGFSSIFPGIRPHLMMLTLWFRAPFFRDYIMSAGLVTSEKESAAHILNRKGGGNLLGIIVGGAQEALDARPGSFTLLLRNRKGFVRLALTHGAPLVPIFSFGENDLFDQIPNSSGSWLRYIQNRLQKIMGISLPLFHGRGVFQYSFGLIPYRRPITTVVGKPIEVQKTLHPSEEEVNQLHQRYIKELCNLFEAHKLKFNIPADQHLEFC

Target: human MOGAT-2 (Homo sapiens (Human), UniProt Q3SYC2)
Experiment: MOGAT-2 Cell Assay (Caco-2 cells stably transfected with human MOGAT-2, HDG substrate, LC-MS)
Assay type: cell-based
Settings: Caco-2 cells expressing human MOGAT-2; value (Std Dev., n)

IC50: 94 nM
Compound: C[C@@H](NS(C)(=O)=O)c1ccc(CN2CCO[C@@H](c3ccccc3)C2)cc1 (single isomer, unassigned; isomer 1) [Example 16]
